## AlphaSeq binding of Ab-14 heavy chain variants to a spike HR2 peptide

From the AlphaSeq antibody data of Engelhart et al. 2022 (doi:10.1038/s41597-022-01779-4), copy in the FLAb collection.

The target is the same throughout: PDVDLGDISGINAS, from the HR2 region of SARS-CoV-2 spike.

Parent scFv Ab-14: VH joined to VL by a (GGGGS)3 linker. Changes lie in the heavy chain CDRs alone.
VH: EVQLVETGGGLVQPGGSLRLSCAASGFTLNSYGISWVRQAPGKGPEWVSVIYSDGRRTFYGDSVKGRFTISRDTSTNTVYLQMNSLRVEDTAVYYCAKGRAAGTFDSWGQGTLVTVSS
VL: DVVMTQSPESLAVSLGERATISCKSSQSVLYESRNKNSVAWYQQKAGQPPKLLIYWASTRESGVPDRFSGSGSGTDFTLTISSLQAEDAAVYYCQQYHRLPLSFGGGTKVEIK

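The starting antibody came from a phage panning campaign against this peptide. AAYL49 was designed without a model: most single CDR substitutions and a random sample of double and triple ones. The assay is AlphaSeq: two haploid yeast populations carry antibody and antigen on their surface. The frequency of each diploid, read from paired DNA barcodes, reflects how well the two displayed proteins bind. Scores were corrected for input abundance and mapped to Kd with protein pairs of known affinity run in the same pool. There are three technical replicates.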

Changes read parent residue, position, new residue, counted from the first residue of the VH shown. Every variant below is changed at G61 of the VH (sequential numbering). Kd is apparent (estimated from mating counts) and averaged on the log scale over replicates with a signal. Smaller is tighter. A pair that was not seen in any replicate is written "no signal"; this usually means weak binding, but a binder can also be missed. Background: pairings of library AAYL49 with three empty control strains gave a value in 15% of cases (median 11 µM, 5th percentile 680 nM). Values in that range, when seen in few replicates, are hard to tell from nonspecific mating. For each scFv, signals with the empty controls are counted beside the result.

With V50H+G61S+R100N the result was 1.9 µM (1 of 3 replicates; controls 0 of 9). The variant F59Y+G61Y showed no signal (0 of 3 replicates; controls 0 of 9). For T28L+N30K+G61N, the assay gave 1.0 µM (3 of 3 replicates; controls 0 of 9). With G33E+I34Y+G61F the result was no signal (0 of 3 replicates; controls 0 of 9). The variant Y32R+G33H+G61A showed no signal (0 of 3 replicates; controls 3 of 9). The variant G61S+K65S+A102H showed 4.9 µM (1 of 3 replicates; controls 0 of 9). With R56E+G61Q+G103W the result was no signal (0 of 3 replicates; controls 0 of 9). The variant G61I+R100Y gave 3.3 nM (3 of 3 replicates; controls 3 of 9). The variant N30E+G61V+G99K gave 8.3 µM (1 of 3 replicates; controls 2 of 9).

With G61R+A102G+D106C the result was no signal (0 of 3 replicates; controls 1 of 9). The variant N30L+G61T+V64H gave no signal (0 of 3 replicates; controls 6 of 9). For G61N+G103Y, the assay gave 4.3 µM (1 of 3 replicates; controls 1 of 9). The variant S53W+G61E+D62T showed 160 nM (2 of 3 replicates; controls 0 of 9). The variant G61I showed 5.8 nM (3 of 3 replicates; controls 0 of 9). The variant G26S+G61F+D62G gave no signal (0 of 3 replicates; controls 0 of 9). The variant S53E+G61I+T104D gave no signal (0 of 3 replicates; controls 0 of 9). The variant G61R+G103N+S107W showed 23 µM (1 of 3 replicates; controls 1 of 9). The variant T58V+G61V+R100E gave 7.1 nM (3 of 3 replicates; controls 3 of 9).

The variant S53V+G61A+V64H showed no signal (0 of 3 replicates; controls 0 of 9). With G61I+D62W+F105A the result was no signal (0 of 3 replicates; controls 0 of 9). The variant F59N+G61Q+R100E showed 9.4 nM (3 of 3 replicates; controls 2 of 9). With S31N+G61R the result was 54 nM (3 of 3 replicates; controls 3 of 9). The variant L29T+I51Y+G61D gave no signal (0 of 3 replicates; controls 0 of 9). The variant S53M+Y60N+G61Q gave 440 nM (1 of 3 replicates; controls 0 of 9). With F27W+G61R+V64D the result was no signal (0 of 3 replicates; controls 1 of 9). For G61Q+D62L+K65Y, the assay gave 9.3 µM (1 of 3 replicates; controls 6 of 9). For G61D+V64Y+D106Y, the assay gave 4.9 µM (1 of 3 replicates; controls 0 of 9).

The variant S31V+G61C+G99T gave 14 µM (2 of 3 replicates; controls 2 of 9). With N30D+G55T+G61K the result was no signal (0 of 3 replicates; controls 0 of 9). With D54E+G61S+F105T the result was no signal (0 of 3 replicates; controls 0 of 9). The variant Y32P+I51M+G61S showed no signal (0 of 3 replicates; controls 3 of 9). With G33Q+Y60R+G61A the result was no signal (0 of 3 replicates; controls 0 of 9). For L29A+G61M+T104H, the assay gave 12 µM (1 of 3 replicates; controls 2 of 9). The variant R57N+G61E+S63I gave 84 µM (2 of 3 replicates; controls 4 of 9). With N30L+F59N+G61Y the result was no signal (0 of 3 replicates; controls 0 of 9).

Excerpt, the first 5 entries:

For V50H+G61S+R100N, the assay gave 1.9 µM (1 of 3 replicates; controls 0 of 9).
For F59Y+G61Y, the assay gave no signal (0 of 3 replicates; controls 0 of 9).
For T28L+N30K+G61N, the assay gave 1.0 µM (3 of 3 replicates; controls 0 of 9).
For G33E+I34Y+G61F, the assay gave no signal (0 of 3 replicates; controls 0 of 9).
For Y32R+G33H+G61A, the assay gave no signal (0 of 3 replicates; controls 3 of 9).

Parent in this assay: reference entry 4.4 nM, copy in this library 13 µM (one replicate of three).